Earlier results, collected in patent US20060147495A1, “Amino acid-based nutritional formulation” (priority 2004, published 2006).

Settings: in deionised water at 12° C.

**Q.** Which solubility does the source give for calcium glycerophosphate here?
**A.** about 2 g/100 ml
